Measurements reported in publication PMC5217008, “AKT-induced PKM2 phosphorylation signals for IGF-1-stimulated cancer cell growth” (Oncotarget, 2016).

Target: T1, recombinant His-tagged PKM2 (UniProt P14618)
T1 construct: Pyruvate kinase muscle type 2 (PKM2), recombinant protein from BioVision; No catalogue number is printed; also called Recombinant PKM2; source: bought: BioVision
Assay: co-IP; in vitro binding assay: recombinant PKM2 incubated with or without recombinant active AKT1, immunoprecipitated with anti-AKT antibody, western blot
Details: both partners purified

B1: recombinant active AKT1 (enzyme, UniProt P31749 1-480, looked up)
chain: MSDVAIVKEGWLHKRGEYIKTWRPRYFLLKNDGTFIGYKERPQDVDQREAPLNNFSVAQCQLMKTERPRPNTFIIRCLQWTTVIERTFHVETPEEREEWTTAIQTVADGLKKQEEEEMDFRSGSPSDNSGAEEMEVSLAKPKHRVTMNEFEYLKLLGKGTFGKVILVKEKATGRYYAMKILKKEVIVAKDEVAHTLTENRVLQNSRHPFLTALKYSFQTHDRLCFVMEYANGGELFFHLSRERVFSEDRARFYGAEIVSALDYLHSEKNVVYRDLKLENLMLDKDGHIKITDFGLCKEGIKDGATMKTFCGTPEYLAPEVLEDNDYGRAVDWWGLGVVMYEMMCGRLPFYNQDHEKLFELILMEEIRFPRTLGPEAKSLLSGLLKKDPKQRLGGGSEDAKEIMQHRFFAGIVWQHVYEKKLSPPFKPQVTSETDTRYFDEEFTAQMITITPPDQDDSMECVDSERRPHFPQFSYSASGTA
notes: AKT1, active recombinant kinase; The catalogue number is printed for the in vitro kinase assay; source: bought: Millipore, 14-276
B1: binds.
